Reference: patent publication EP0137900B1, “Bis-platinum complexes as antitumor agents” (priority 1983, dated 1985)

Test: Solubility (water, organic solvents, 1% NaHCO3, basic solutions)
Conditions: result in words

## benzenepentacarboxylatobis[ethylenediamine] platinum(II)] [Example 4]
  solubility in 1% NaHC03 solution: dissolves
